We go through 1 substance from patent US10544185B2 (Suzhou Zelgen Biopharmaceuticals Co., Ltd., priority 2015, dated 2020).

The target of the assay is T1, farnesoid X receptor (FXR) (Homo sapiens, UniProt Q96RI1).
T1 sequence (Q96RI1 1-486): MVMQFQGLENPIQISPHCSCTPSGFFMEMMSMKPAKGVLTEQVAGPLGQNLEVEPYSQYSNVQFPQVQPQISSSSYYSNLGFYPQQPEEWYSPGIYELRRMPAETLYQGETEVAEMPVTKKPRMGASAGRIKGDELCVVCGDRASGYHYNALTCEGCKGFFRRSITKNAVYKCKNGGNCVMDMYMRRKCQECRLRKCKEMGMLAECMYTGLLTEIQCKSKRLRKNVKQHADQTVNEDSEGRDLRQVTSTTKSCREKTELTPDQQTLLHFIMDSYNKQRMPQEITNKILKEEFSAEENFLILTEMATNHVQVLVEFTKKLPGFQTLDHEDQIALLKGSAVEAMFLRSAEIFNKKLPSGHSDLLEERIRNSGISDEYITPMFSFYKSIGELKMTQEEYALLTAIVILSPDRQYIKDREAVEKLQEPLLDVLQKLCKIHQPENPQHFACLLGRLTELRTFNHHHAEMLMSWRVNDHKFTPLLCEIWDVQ
Briefly: Recruitment Coactivator Assay (AlphaScreen) for FXR activation. Format: biochemical. The following applies: read-out: activating activity (EC50) for FXR. How it is done: The farnesoid X receptor (FXR) activation of the compounds of the present invention is determined by Recruitment Coactivator Assay, i.e. AlphaScreen. Specific in vitro pharmacodynamic evaluation experimental program has referred to the literature J Pharmacol Exp Ther 350:56-68, July 2014.
In general terms: Bead proximity is the source of the signal in Alpha formats.

For “3α, 7α-Dihydroxy-6α-(Ethyl-d4)-7-d-5β-Cholan-24-Oic Acid [Example 6]”, the EC50 – broadly, the midpoint of the concentration-response curve – is less than 200 nM.
